Test results reported in US20100159011A1, “Compositions For Biomedical Applications” (University of Massachusetts Medical School, priority 2007, published 2010).

Test system: murine myoblast C2C12 cells
Experiment: Osteogenic trans-differentiation of C2C12 cells (ALP stain)
Assay type: cell-based, mouse
Protocol: Grafts (5×5×1 mm, FlexBone 25% HA-25% TCP) were pre-absorbed with varying amounts of growth factors and cytokines to provide an exogenous supply for remodeling. Grafts loaded with growth factors rhBMP-2, rmRANKL, and rhVEGF165 were analyzed at the respective preferred doses. The preferred loading dose of RANKL (10 ng/FlexBone graft) was determined by the osteoclastic differentiation of macrophage RAW264.7, induced by the RANKL released from the graft as indicated by positive TRAP stains (purple) of multinucleated cells on Day 6. […] The preferred loading dose of rhBMP-2/7 heterodimer (40 ng/FlexBone graft) was determined by the osteogenic differentiation of C2C12 cells induced by the BMP-2/7 released from the graft in culture. […] Finally, the preferred loading dose of rhVEGF165 in stimulating the proliferation of human vascular endothelial cells in culture was determined to be 5 ng/graft.
Osteogenic trans-differentiation of murine myoblast C2C12 cells induced by the rhBMP-2/7 locally released from FlexBone. The bioactivity of the exogenous rhBMP-2/7 released from FlexBone was evaluated by its ability to induce osteogenic trans-differentiation of mouse myoblast C2C12 cells three days after placing the FlexBone graft pre-loaded with rhBMP-2/7 in the low mitogen C2C12 culture. […]

B1: rhBMP-2/7: recombinant protein rhBMP-2/7 heterodimer purchased from R&D Systems (protein, UniProt P12643 283-396; P18075 293-431, looked up)
Bone morphogenetic protein 2: QAKHKQRKRLKSSCKRHPLYVDFSDVGWNDWIVAPPGYHAFYCHGECPFPLADHLNSTNHAIVQTLVNSVNSKIPKACCVPTELSAISMLYLDENEKVVLKNYQDMVVEGCGCR
Bone morphogenetic protein 7: STGSKQRSQNRSKTPKNQEALRMANVAENSSSDQRQACKKHELYVSFRDLGWQDWIIAPEGYAAYYCEGECAFPLNSYMNATNHAIVQTLVHFINPETVPKPCCAPTQLNAISVLYFDDSSNVILKKYRNMVVRACGCH
modifications: heterodimer
notes: recombinant protein rhBMP-2/7 heterodimer purchased from R&D Systems
For B1, the preferred loading dose (determined by osteogenic differentiation of C2C12 cells) was 40 ng/FlexBone graft and the “osteogenic trans-differentiation of C2C12 (ALP activity)” value (single dose 40-ng/mL rhBMP-2/7 (20 ng per well), day three) was “able to induce osteogenic trans-differentiation of C2C12”.
